Reference: patent US20120004285A1, “ERBB-3 (HER3)-SELECTIVE COMBINATION THERAPY” (ENZON PHARMACEUTICALS, INC., priority 2008, published 2012)

Test system: A431 cells
Assay: Cell proliferation assay (MTS), A431
Assay type: cell-based, human
Conditions: gefitinib alone, FIG. 6A
Procedure: Cells were routinely passaged 2-3 times weekly.
15PC-3 (Santaris Pharma): The human prostate cancer cell line 15PC-3 was cultured in DMEM (ATCC)+10% fetal bovine serum (FBS)+2 mM Glutamax™ I+gentamicin (25 μg/ml). A549 (ATCC): The human lung cancer cell line A549 was cultured in F12K Medium (ATCC)+10% FBS+2 mM Glutamax™ I+Penicillin (100 u/ml)/Streptomycin (100 μg/ml). DU145 (ATCC): The human prostate cancer cell line DU145 was cultured in Eagle's Minimum Essential Medium (ATCC)+10% FBS+2 mM Glutamax™ I+Penicillin (100 u/ml)/Streptomycin (100 μg/ml). A431 (ATCC): The human epidermoid cancer cell line A431 was cultured in DMEM (ATCC)+10% fetal bovine serum (FBS)+2 mM Glutamax™ I+Penicillin (100 u/ml)/Streptomycin (100 μg/ml). SKBR-3 (ATCC): The human breast cancer cell line SKBR3 was cultured in McCoy's 5A Medium. Modified (ATCC)+10% FBS+2 mM Glutamax™ I+Penicillin (100 u/ml)/Streptomycin (100 μg/ml).
Cells were seeded in 6-well plates (NUNC™) and treated when 50-60% confluent. The transfection of cells by ON180 was performed as described by the manufacturer using serum-free OptiMEM® (Gibco™) and 5 μg/ml Lipofectamine™-2000. ONCONT served as a negative control. The treated cells were incubated at 37° C. for 4 hours and then washed with OptiMEM®, after which regular serum-containing medium was added.

## COc1cc2ncnc(Nc3ccc(F)c(Cl)c3)c2cc1OCCCN1CCOCC1 [gefitinib, reference compound]
  sensitivity of cells to gefitinib: sensitive
